# Antibody variant affinities, Ab-14 heavy chain, assay 1

Antigen: PDVDLGDISGINAS, a 14-residue peptide of the SARS-CoV-2 spike HR2 region.

Parent: Ab-14, a human scFv built as VH, a 15-residue (Gly4Ser)3 linker, VL. Only the CDRs of the heavy chain vary.
VH: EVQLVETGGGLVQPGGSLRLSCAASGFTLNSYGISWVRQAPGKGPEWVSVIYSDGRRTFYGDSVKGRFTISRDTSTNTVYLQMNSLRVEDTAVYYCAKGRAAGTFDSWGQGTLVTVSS
VL: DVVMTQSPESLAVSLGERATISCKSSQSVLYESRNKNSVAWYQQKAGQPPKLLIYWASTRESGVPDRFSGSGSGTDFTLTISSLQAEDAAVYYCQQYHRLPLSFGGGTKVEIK

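The starting antibody came from a phage panning campaign against this peptide. Library AAYL49 holds single substitutions and randomly drawn double and triple substitutions in the CDRs. AlphaSeq pools MATa yeast showing the antibodies with MATalpha yeast showing the peptide. Mating (16 h, 30 °C) was followed by selection of diploids and sequencing of their barcodes. A regression on co-assayed BCL2-family reference pairs converts the normalised counts of each replicate to an apparent Kd. The assay was run in three technical replicates.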

Sequences are complete VH domains. Kd is apparent (estimated from mating counts) and averaged on the log scale over replicates with a signal. Smaller is tighter. "no signal" marks a missing value. The strain was present, yet no cells mated with the target were sequenced in any replicate, which points to weak or no binding. Empty control strains, which show no peptide, gave a signal in 15% of pairings with library AAYL49; the median was 11 µM and 95% of these signals were weaker than 680 nM. No background was subtracted. Also given: how often the same scFv was detected with the empty control strains.

VH	Kd	replicates with signal	control signals
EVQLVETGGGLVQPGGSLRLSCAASGFTLNSYGILWVRQAPGKGPEWVSVIYIDGRRTFYGDSVKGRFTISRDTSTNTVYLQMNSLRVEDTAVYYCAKGRAPGTFDSWGQGTLVTVSS	48 µM	3/3	6/9
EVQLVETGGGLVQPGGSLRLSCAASGFTLNSYGISWVRQAPGKGPEWVSVIYCCGRRTFYGDSVKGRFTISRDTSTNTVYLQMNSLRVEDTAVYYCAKGRIAGTFDSWGQGTLVTVSS	6.5 µM	1/3	1/9
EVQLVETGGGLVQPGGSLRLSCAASGFELNSYGISWVRQAPGKGPEWVSVIYSDGRRTFYCDSVIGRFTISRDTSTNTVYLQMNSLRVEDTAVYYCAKGRAAGTFDSWGQGTLVTVSS	10 nM	3/3	0/9
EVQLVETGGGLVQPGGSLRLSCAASGYTLNIYGISWVRQAPGKGPEWVSVIYSDGRRTFYGDDVKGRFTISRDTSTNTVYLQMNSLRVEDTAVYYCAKGRAAGTFDSWGQGTLVTVSS	13 µM	1/3	1/9
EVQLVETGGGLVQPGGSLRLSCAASGFTNHSYGISWVRQAPGKGPEWVSVIYSDGRRTFYGDSVKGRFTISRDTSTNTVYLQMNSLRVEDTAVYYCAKWRAAGTFDSWGQGTLVTVSS	11 µM	2/3	1/9
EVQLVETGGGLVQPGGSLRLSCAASGFTLNSYGISWVRQAPGKGPEWVSDIYSWGRRTFYGDSVKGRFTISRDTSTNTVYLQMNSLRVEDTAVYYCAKGRAAGTFDSWGQGTLVTVSS	no signal	0/3	2/9
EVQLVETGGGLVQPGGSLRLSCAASGFTLNIYGISWVRQAPGKGPEWVSVPYSDGRRTFYGDSVKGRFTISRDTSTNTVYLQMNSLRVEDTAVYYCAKGRAMGTFDSWGQGTLVTVSS	no signal	0/3	2/9
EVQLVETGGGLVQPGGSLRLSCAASGFTLNSYGISWVRQAPGKGPEWVSVIYSDGRRTFYGDSKKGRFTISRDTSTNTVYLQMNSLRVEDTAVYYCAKGRAVGTFGSWGQGTLVTVSS	33 µM	1/3	2/9
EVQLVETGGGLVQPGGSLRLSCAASGFTMNSYGISWVRQAPGKGPEWVSVIQSDYRRTFYGDSVKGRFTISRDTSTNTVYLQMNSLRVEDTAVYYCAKGRAAGTFDSWGQGTLVTVSS	no signal	0/3	3/9
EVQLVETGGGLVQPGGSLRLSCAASGFTLNKYGISWVRQAPGKGPEWVSVIYSDGRFTFYGDSVKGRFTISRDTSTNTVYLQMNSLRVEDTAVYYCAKGRAAGTFKSWGQGTLVTVSS	no signal	0/3	1/9
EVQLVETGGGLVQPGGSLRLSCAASGFTLCSYGISWVRQAPGKGPEWVSVIYSDGRRTFKGDSVKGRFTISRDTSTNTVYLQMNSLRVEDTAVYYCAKSRAAGTFDSWGQGTLVTVSS	no signal	0/3	0/9
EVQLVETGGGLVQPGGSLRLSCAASGFTLNSRGISWVRQAPGKGPEWVSVIYSDERRTFYGDSVKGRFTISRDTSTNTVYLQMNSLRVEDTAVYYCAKGRAAWTFDSWGQGTLVTVSS	no signal	0/3	0/9
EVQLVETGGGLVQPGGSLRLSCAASGETLLSYGISWVRQAPGKGPEWVSVIYSYGRRTFYGDSVKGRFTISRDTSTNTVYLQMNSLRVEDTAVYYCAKGRAAGTFDSWGQGTLVTVSS	no signal	0/3	1/9
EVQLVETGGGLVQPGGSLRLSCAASGHCLNSYGISWVRQAPGKGPEWVSVIYSDGRRTFYGDSVKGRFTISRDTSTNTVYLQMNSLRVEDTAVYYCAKGRAAGTFDDWGQGTLVTVSS	49 µM	3/3	7/9
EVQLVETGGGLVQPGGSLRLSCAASGFTLNSYGIRWVRQAPGKGPEWVSVIYSDGRRTFTGDSVKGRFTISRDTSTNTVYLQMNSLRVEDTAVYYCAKGRAAGRFDSWGQGTLVTVSS	no signal	0/3	0/9
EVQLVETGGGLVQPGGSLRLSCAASGFTLNSYHITWVRQAPGKGPEWVSWIYSDGRRTFYGDSVKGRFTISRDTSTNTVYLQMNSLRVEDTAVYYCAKGRAAGTFDSWGQGTLVTVSS	no signal	0/3	0/9
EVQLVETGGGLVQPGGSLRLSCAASGFTLNSYGISWVRQAPGKGPEWVSVIYTGGRRHFYGDSVKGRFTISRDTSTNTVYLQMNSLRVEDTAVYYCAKGRAAGTFDSWGQGTLVTVSS	no signal	0/3	1/9
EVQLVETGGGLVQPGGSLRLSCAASGFTLNSYGISWVRQAPGKGPEWVSVIYSDGRWTFYGDSWYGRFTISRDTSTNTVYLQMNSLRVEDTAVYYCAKGRAAGTFDSWGQGTLVTVSS	no signal	0/3	0/9
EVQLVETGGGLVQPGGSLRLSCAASGFTLNSYGISWVRQAPGKGPEWVSVIYSDGRRGFYGQSVTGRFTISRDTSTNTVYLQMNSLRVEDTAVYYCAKGRAAGTFDSWGQGTLVTVSS	no signal	0/3	0/9
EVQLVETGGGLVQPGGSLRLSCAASGFTLNSYGNDWVRQAPGKGPEWVSVIYSDGRRTFYGDSVKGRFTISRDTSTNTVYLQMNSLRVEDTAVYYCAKGRAVGTFDSWGQGTLVTVSS	no signal	0/3	0/9
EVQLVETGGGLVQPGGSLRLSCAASGFTLNSYGISWVRQAPGKGPEWVSVIYSDGRYTFYGDSVKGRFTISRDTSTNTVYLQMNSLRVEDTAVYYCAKRRAAKTFDSWGQGTLVTVSS	no signal	0/3	0/9
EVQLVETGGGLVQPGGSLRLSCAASGFTLNSYTISWVRQAPGKGPEWVSVIYSDGRRTYYGDSVKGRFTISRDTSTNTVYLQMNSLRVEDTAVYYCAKGRAAGTFESWGQGTLVTVSS	3.6 µM	1/3	1/9

The last 3 entries again:

VH	Kd	replicates with signal	control signals
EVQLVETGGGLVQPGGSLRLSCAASGFTLNSYGNDWVRQAPGKGPEWVSVIYSDGRRTFYGDSVKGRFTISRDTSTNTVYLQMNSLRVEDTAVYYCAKGRAVGTFDSWGQGTLVTVSS	no signal	0/3	0/9
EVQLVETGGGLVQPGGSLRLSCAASGFTLNSYGISWVRQAPGKGPEWVSVIYSDGRYTFYGDSVKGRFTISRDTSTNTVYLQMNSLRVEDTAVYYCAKRRAAKTFDSWGQGTLVTVSS	no signal	0/3	0/9
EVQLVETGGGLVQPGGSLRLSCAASGFTLNSYTISWVRQAPGKGPEWVSVIYSDGRRTYYGDSVKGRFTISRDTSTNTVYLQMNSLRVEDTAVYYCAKGRAAGTFESWGQGTLVTVSS	3.6 µM	1/3	1/9

Parent in this assay: reference entry 4.4 nM, copy in this library 13 µM (one replicate of three).

The measurements come from Engelhart et al. 2022 (doi:10.1038/s41597-022-01779-4) through the FLAb antibody collection.